Laboratory results reported in patent publication US20130030001A1 (priority 2008, published 2013).

Amino acid sequences for entries named in this document (tags omitted).
UniProt P20309, whole entry: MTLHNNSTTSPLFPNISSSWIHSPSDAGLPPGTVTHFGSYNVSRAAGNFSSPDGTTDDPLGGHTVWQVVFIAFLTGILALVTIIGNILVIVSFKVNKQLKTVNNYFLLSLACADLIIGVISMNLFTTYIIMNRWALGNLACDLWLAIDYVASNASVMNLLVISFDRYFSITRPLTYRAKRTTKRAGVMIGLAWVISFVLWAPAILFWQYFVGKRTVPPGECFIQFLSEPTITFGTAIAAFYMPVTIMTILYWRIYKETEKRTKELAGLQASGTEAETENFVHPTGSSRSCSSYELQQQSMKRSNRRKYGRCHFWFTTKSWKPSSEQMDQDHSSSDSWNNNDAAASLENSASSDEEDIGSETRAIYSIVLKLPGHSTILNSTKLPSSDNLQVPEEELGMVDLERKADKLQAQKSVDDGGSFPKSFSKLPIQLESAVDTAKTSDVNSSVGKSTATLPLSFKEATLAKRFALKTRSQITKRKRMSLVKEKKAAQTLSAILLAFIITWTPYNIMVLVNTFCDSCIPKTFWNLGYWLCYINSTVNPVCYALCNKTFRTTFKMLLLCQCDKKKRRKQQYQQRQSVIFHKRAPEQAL

Biological target: T1, human muscarinic acetylcholine M3 receptor (Homo sapiens, UniProt P20309)
T1 construct: expressed in transfected cells; host or cells: CHO-K1 (Chinese Hamster Ovary) cell membranes
Test: biochemical
Settings: M3 binding IC50

Cc1nccc(NC(=O)C[N+]23CCC(CC2)[C@@H](OC(=O)C2(c4ccccc4)CCCCCC2)C3)n1 [Example 58, (R)-1-[(2-Methyl-pyrimidin-4-ylcarbamoyl)-methyl]-3-(1-phenyl-cycloheptanecarbonyloxy)-1-azonia-bicyclo[2.2.2]octane chloride]
IC50: < 2 nM
